Assay results taken from article PMC8406418, “Plant-Derived Cyclotides Modulate κ-Opioid Receptor Signaling” (Journal of Natural Products, 2021).

By UniProt entry, the sequences of proteins in these tests, tags left out. Where a name states a change or a piece, a line headed by the entry shows the natural chain unless it says otherwise.
UniProt P33534: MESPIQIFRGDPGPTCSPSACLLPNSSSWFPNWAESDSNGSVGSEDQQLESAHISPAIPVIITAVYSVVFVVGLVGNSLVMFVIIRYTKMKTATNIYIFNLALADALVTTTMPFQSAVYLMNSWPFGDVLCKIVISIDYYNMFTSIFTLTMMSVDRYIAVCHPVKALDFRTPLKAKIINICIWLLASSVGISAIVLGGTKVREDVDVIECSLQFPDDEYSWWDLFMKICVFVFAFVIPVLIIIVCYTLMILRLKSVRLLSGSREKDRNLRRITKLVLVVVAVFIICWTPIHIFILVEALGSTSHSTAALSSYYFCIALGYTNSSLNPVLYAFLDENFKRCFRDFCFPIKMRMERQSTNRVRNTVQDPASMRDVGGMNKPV

Columns and labels:
mouse KOR [1] = target: T1, mouse KOR (Mus musculus, UniProt P33534)
mouse KOR [2] = target: T1, mouse KOR; remark: listed apart in the source

CN(C(=O)Cc1ccc(Cl)c(Cl)c1)C1CCCCC1N1CCCC1 (stereo not shown)
cAMP inhibition Emax ± SD (mouse KOR [1]; U50,488 + 0 μM T20K): 100% | cAMP inhibition Emax ± SD (mouse KOR [1]; U50,488 + 0.03 μM T20K): 91.1 ± 6.5% | cAMP inhibition Emax ± SD (mouse KOR [1]; U50,488 + 0.1 μM T20K): 90.0 ± 8.4% | cAMP inhibition Emax ± SD (mouse KOR [1]; U50,488 + 0.3 μM T20K): 88.2 ± 18.7% | cAMP inhibition Emax ± SD (mouse KOR [1]; U50,488 + 1 μM T20K): 92.0 ± 12.5% | arrestin recruitment Emax ± SD (mouse KOR [2]; U50,488 + 0 μM T20K): 100% | arrestin recruitment Emax ± SD (mouse KOR [2]; U50,488 + 10 μM T20K): 77.3 ± 9.4 %

Like-named read-outs stand apart in the source and are kept apart here.
